Laboratory results reported in US20210253511A1, “COMPOUNDS AND USES FOR THE TREATMENT AND PREVENTION OF DISEASES AND CONDITIONS ASSOCIATE WITH OR AGGREVATED BY IMPARED MITOPHAGY” (Yissum Research Development Company of The Hebrew …, priority 2018, published 2021).

Test system: C. elegans
Settings: 0.25 and 4 mM; no PQ

NCCCCCCCCCCCCN [1,12-Diaminododecane]
viability of worms not exposed to PQ: did not change the viability
